Columns and labels:
p-STAT1^SER727 = test: Inhibition of STAT1 SER727 phosphorylation in cells (target-engagement biomarker); settings: read-out: p-STAT1^SER727 IC50; mean ± s.d. or *± range
CDK8 = CDK8 (Homo sapiens, UniProt P49336); test: CDK8 binding (Lanthascreen binding competition / reporter displacement assay); settings: read-out: CDK8 IC50; mean ± s.d. (at least three) or *± range (two repeats)
CDK19 = CDK19 (Homo sapiens, UniProt Q9BWU1); test: CDK19 reporter displacement assay; assay type: binding; settings: read-out: CDK19 IC50; mean ± s.d. (at least three) or *± range (two repeats)
7dF3 = 7dF3 inducible WNT-pathway luciferase reporter; settings: read-out: 7dF3 IC50, mean ± s.d. or *± range
DLD1 [1] = test: 14 d colony growth assay, DLD1; assay type: cell-based, human; settings: 350 nM, mean (range), n = 2
SW837 [2] = test: 24 hour TCF/LEF reporter assay, SW837; assay type: cell-based, human; settings: read-out: 24 hour TCF/LEF Reporter assay IC50, mean (s.d.), n = 4
RKO [3] = test: 24 hour reporter assay, RKO negative control (EEF1A1 promoter-reporter); assay type: cell-based, human; settings: read-out: 24 hour TCF/LEF Reporter assay IC50, WNT-independent EEF1A1 promoter-reporter
LS513 [4] = test: 96 hour proliferation GI50, LS513; settings: read-out: 96 hour GI50
LS174T [5] = test: 24 hour TCF/LEF reporter assay, LS174T; assay type: cell-based, human; settings: read-out: 24 hour TCF/LEF Reporter assay IC50, mean (s.d.), n = 4
DLD1 [6] = test: 96 hour proliferation GI50, DLD1; settings: read-out: 96 hour GI50
SW837 [7] = test: 14 d colony growth assay, SW837; assay type: cell-based, human; settings: 350 nM, mean (range), n = 2
DLD1 [8] = test: 24 hour TCF/LEF reporter assay, DLD1; assay type: cell-based, human; settings: read-out: 24 hour TCF/LEF Reporter assay IC50, mean (s.d.), n = 4
HT29 [9] = test: 96 hour proliferation GI50, HT29; settings: read-out: 96 hour GI50
LS174T [10] = test: 14 d colony growth assay, LS174T; assay type: cell-based, human; settings: 350 nM, mean (range), n = 2
SW620 = test: 14 d colony growth assay, SW620; assay type: cell-based, human; settings: 350 nM, mean (range), n = 2
SW948 [11] = test: 14 d colony growth assay, SW948; assay type: cell-based, human; settings: 350 nM, mean (range), n = 2
HT29 [12] = test: 14 d colony growth assay, HT29; assay type: cell-based, human; settings: 350 nM, mean (range), n = 2
COLO205 [13] = test: 96 hour proliferation GI50, COLO205; settings: read-out: 96 hour GI50
RKO [14] = test: 14 d colony growth assay, RKO; assay type: cell-based, human; settings: 350 nM, mean (range), n = 2
COLO205 [15] = test: 24 hour TCF/LEF reporter assay, COLO205; assay type: cell-based, human; settings: read-out: 24 hour TCF/LEF Reporter assay IC50, mean (s.d.), n = 4
LS180 [16] = test: 14 d colony growth assay, LS180; assay type: cell-based, human; settings: 350 nM, mean (range), n = 2
RKO [17] = test: 96 hour proliferation GI50, RKO; settings: read-out: 96 hour GI50
LS180 [18] = test: 24 hour TCF/LEF reporter assay, LS180; assay type: cell-based, human; settings: read-out: 24 hour TCF/LEF Reporter assay IC50, mean (s.d.), n = 4
LS513 [19] = test: 14 d colony growth assay, LS513; assay type: cell-based, human; settings: 350 nM, mean (range), n = 2
SW948 [20] = test: 96 hour proliferation GI50, SW948; settings: read-out: 96 hour GI50
LS174T [21] = test: 96 hour proliferation GI50, LS174T; settings: read-out: 96 hour GI50

Amino acid sequences for entries named in this document (tags omitted).
UniProt P49336, whole entry: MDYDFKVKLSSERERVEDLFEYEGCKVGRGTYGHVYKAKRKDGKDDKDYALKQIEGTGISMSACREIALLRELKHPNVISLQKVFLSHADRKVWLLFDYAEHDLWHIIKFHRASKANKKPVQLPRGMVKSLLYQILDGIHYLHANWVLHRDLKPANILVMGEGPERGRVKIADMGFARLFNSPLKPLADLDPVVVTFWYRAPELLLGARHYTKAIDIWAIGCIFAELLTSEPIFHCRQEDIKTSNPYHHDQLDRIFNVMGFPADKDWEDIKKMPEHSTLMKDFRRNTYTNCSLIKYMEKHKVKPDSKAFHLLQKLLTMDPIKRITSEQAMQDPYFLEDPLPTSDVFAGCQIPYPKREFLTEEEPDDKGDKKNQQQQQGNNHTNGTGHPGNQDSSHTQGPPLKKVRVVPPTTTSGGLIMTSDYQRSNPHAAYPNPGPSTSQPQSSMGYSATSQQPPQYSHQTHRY
UniProt Q9BWU1, whole entry: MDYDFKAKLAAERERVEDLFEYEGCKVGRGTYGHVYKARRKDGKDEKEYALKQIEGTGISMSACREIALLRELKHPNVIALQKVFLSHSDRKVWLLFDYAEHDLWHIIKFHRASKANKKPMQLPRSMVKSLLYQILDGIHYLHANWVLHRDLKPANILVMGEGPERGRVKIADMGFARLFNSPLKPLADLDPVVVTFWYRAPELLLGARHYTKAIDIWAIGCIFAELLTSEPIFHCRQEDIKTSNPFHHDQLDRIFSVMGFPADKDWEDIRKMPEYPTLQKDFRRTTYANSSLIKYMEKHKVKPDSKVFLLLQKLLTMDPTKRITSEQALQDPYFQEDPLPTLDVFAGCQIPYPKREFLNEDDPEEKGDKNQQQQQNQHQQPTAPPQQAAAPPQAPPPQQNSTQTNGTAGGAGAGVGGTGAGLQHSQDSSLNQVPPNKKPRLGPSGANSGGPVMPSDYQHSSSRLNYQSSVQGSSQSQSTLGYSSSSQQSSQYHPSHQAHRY
UniProt P24863, whole entry partner: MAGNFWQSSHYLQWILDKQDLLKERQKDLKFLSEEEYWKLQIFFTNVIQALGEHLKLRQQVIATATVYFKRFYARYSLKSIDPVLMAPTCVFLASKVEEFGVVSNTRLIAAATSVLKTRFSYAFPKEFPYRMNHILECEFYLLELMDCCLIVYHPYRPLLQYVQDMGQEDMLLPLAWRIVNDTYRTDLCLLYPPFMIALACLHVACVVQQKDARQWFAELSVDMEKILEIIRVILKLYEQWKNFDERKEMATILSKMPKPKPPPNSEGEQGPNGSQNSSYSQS

| SMILES | IC50 (p-STAT1^SER727) [µM] | IC50 (CDK8) [µM] | IC50 (CDK19) [µM] | IC50 (7dF3) [µM] | 14 d colony growth (relative to control) (DLD1 [1]) | IC50 (SW837 [2]) [µM] | IC50 (RKO [3]) [µM] | GI50 (LS513 [4]) [µM] | IC50 (LS174T [5]) [µM] | GI50 (DLD1 [6]) [µM] | 14 d colony growth (relative to control) (SW837 [7]) | IC50 (DLD1 [8]) [µM] | GI50 (HT29 [9]) [µM] | 14 d colony growth (relative to control) (LS174T [10]) | 14 d colony growth (relative to control) (SW620) | 14 d colony growth (relative to control) (SW948 [11]) | 14 d colony growth (relative to control) (HT29 [12]) | GI50 (COLO205 [13]) [µM] | 14 d colony growth (relative to control) (RKO [14]) | IC50 (COLO205 [15]) [µM] | other results |
| --- | --- | --- | --- | --- | --- | --- | --- | --- | --- | --- | --- | --- | --- | --- | --- | --- | --- | --- | --- | --- | --- |
| Cc1n[nH]c2ccc(-c3cncc(N[C@@H](C(N)=O)c4ccccc4)c3)cc12 | 0.0013 | 0.0018 | 0.0031 | 0.0002 |  |  |  |  |  |  |  |  |  |  |  |  |  |  |  |  |  |
| Cc1n[nH]c2ncc(C(=O)N3CCC[C@@H]3c3ccc(Cl)cc3)cc12 |  | 0.59 |  | 2.1 | 0.98 (0.01) | > 30 | > 30 | > 30 | > 30 | > 30 | 0.95 (0.09) | > 30 | > 30 | 0.93 (0.11) | 0.96 (0.10) | 0.74 (0.03) | 1.13 (0.17) | > 30 | 0.96 (0.10) | > 30 | 14 d colony growth (relative to control) (LS180 [16]): 0.74 (0.11); GI50 (RKO [17]): > 30 µM; IC50 (LS180 [18]): > 30 µM; 14 d colony growth (relative to control) (LS513 [19]): 1.23 (0.05); GI50 (SW948 [20]): > 30 µM; GI50 (LS174T [21]): > 30 µM |
| O=C1NCCC12CCN(c1c(Cl)cncc1-c1ccc3cccnc3c1)CC2 | 0.33 |  |  |  | 0.89 (0.03) | 0.777 | > 30 | > 30 | 2.56 | > 30 | 0.95 (0.03) | 6.13 | > 30 | 0.93 (0.02) | 0.82 (0.04) | 1.02 (0.01) | 1.06 (0.14) | > 30 | 0.94 (0.04) | 0.694 | 14 d colony growth (relative to control) (LS180 [16]): 1.13 (0.63); GI50 (RKO [17]): > 30 µM; IC50 (LS180 [18]): 2.13 µM; 14 d colony growth (relative to control) (LS513 [19]): 1.22 (0.06); GI50 (SW948 [20]): > 30 µM; GI50 (LS174T [21]): > 30 µM |
| Brc1c(Br)c2c3c(nc(N4CCNCC4)n3CCC2)c1Br | 0.14 | 0.0146 | 0.0081 | 0.047 |  |  |  |  |  |  |  |  |  |  |  |  |  |  |  |  |  |

From PMC5224920, “Assessing the mechanism and therapeutic potential of modulators of the human Mediator complex-associated protein kinases” (eLife, 2016)
